Experimental data: paper doi:10.1101/2024.08.08.607204, “Mechanism of ASF1 Inhibition by CDAN1” (bioRxiv, 2024)

B1: FLAG-tagged ASF1A (F-ASF1A) (natural protein)
chain: not shown
notes: ASF1A cDNA synthesized by IDT, in pCDNA3.1; Same plasmid used in Expi293 and in Flp-In 293 T-REx; kept as one molecule; also called FLAG-ASF1A; source: Expi293, transiently transfected, in lysate and purified in the C:A complex (anti-FLAG, Strep-Tactin); Flp-In 293 T-REx, co-transfected, in lysate; not shown: 3xFLAG, N-terminal, kept
B2: HA-tagged ASF1A (natural protein)
chain: not shown
notes: ASF1A cDNA synthesized by IDT, in pCDNA3.1; also called HA-ASF1A; ASF1A-1; source: Expi293, transiently transfected, in lysate and purified in the C:C:A complex (anti-FLAG, Strep-Tactin); not shown: 3xHA, N-terminal, kept

Biological target: T1, Strep-tagged CDAN1 (ST-CDAN1), wildtype (human, UniProt Q8IWY9 1-1227)
T1 construct: Codanin-1 (CDAN1) cDNA from Horizon Discovery/Dharmacon; a point mutation of the clone (S421F) was corrected; in pCDNA3.1; Dimer by SEC-MALS and cryo-EM; Same plasmid used in Expi293 (purifications) and in Flp-In 293 T-REx (pulldowns); kept as one molecule; also called WT CDAN1; Strep-CDAN1; source: Expi293, transiently transfected, in lysate and purified in complexes (anti-FLAG, Strep-Tactin); …
T1 sequence: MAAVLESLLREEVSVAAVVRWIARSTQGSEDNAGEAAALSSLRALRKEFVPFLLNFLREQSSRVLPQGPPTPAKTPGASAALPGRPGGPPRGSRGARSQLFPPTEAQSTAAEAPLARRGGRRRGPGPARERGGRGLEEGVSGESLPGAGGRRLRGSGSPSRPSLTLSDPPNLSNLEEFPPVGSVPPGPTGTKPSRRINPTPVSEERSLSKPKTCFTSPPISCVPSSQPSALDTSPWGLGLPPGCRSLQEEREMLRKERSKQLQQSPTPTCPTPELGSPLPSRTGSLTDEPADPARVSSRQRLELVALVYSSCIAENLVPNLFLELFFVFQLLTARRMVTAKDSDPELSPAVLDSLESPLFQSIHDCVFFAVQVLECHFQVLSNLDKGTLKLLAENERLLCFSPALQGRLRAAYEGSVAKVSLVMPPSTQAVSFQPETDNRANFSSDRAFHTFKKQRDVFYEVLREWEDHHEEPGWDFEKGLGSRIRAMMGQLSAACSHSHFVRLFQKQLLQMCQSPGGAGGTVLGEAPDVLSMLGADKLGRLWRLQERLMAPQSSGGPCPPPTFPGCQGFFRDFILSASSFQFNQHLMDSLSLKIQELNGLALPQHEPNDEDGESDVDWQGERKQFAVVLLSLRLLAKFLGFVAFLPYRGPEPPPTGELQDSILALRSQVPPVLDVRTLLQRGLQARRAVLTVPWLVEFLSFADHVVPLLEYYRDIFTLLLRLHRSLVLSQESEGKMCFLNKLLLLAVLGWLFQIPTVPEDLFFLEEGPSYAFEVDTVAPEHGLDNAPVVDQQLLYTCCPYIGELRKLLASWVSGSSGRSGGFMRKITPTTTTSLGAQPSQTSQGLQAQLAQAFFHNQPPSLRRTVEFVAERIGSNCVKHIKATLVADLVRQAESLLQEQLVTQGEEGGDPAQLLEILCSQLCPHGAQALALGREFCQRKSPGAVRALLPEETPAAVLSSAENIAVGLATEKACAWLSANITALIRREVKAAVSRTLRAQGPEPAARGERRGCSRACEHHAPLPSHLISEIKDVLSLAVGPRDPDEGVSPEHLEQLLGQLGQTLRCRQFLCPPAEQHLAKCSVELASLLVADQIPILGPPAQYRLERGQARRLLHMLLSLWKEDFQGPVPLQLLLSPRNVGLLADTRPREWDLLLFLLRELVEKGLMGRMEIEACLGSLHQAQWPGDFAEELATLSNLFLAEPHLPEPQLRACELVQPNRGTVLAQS
Experiment: SEC-MALS; 200 μg of each purified complex at 5 μM on an SRT SEC-300 column with DAWN HELEOS II detector; dn/dc 0.185
Details: both partners purified

Row | Binder | stoichiometry N
1 | B1 | 3 copies of ASF1A per two copies of CDAN1
2 | B2 | 3 copies of ASF1A per two copies of CDAN1
